According to patent US20190358302A1 (AMICUS THERAPEUTICS, published 2019):

Target: cation independent mannose-6-phosphate receptor (CIMPR)
Assay: method not stated

Kd: ~3 nM
B1: rhα-Gal A as described herein (clone or preparation not specified) (enzyme)
chain: LDNGLARTPTMGWLHWERFMCNLDCQEEPDSCISEKLFMEMAELMVSEGWKDAGYEYLCIDDCWMAPQRDSEGRLQADPQRFPHGIRQLANYVHSKGLKLGIYADVGNKTCAGFPGSFGYYDIDAQTFADWGVDLLKFDGCYCDSLENLADGYKHMSLALNRTGRSIVYSCEWPLYMWPFQKPNYTEIRQYCNHWRNFADIDDSWKSIKSILDWTSFNQERIVDVAGPGGWNDPDMLVIGNFGLSWNQQVTQMALWAIMAAPLFMSNDLRHISPQAKALLQDKDVIAINQDPLGKQGYQLRQGDNFEVWERPLSGLAWAVAMINRQEIGGPRSYTIAVASLGKGVACNPACFITQLLPVKRKLGFYEWTSRLRSHINPTGTVLLQLENTMQMSLKDLL
modifications: N-linked glycans (mono-M6P, bis-M6P, sialylated, neutral), typically at Asn-108, Asn-161 and Asn-184 of SEQ ID NO: 2
